Results on seven compounds are retold here after EP4606801A1, “FUSED HETEROCYCLIC COMPOUND AND USE THEREOF” (Chengdu Zenitar Biomedical Technology Co., Ltd., priority 2022, dated 2024).

In general, AUC(0-t) refers to the area under the concentration-time curve up to a stated or last time point. A low value points to less exposure. As a reminder, the Cmax is the peak of the concentration-time curve. The half-life is the time in which the quantity being followed falls by half.

SMILES strings stand for the structures.

Test in one series: not given
The following applies: mouse, in vivo, po, 1 mg/kg.
The compound `[2H]C(c1cnc2cc(CC)c(=O)[nH]c2c1)N1CC=C(c2ccc(C(=O)NC)nc2)CC1` (stereo not drawn) [Compound 3] gave an AUC(0-t) of 122 µg·h/mL, a Cmax of 7460 ng/mL and a half-life of 11.5 h.

A short description of another series: in vivo. The following applies: male, Balb/c, mouse, po, 1 mg/kg.
With `[2H]C([2H])([2H])Cc1cc2ncc(CN3CC=C(c4ccc(C(=O)NC)nc4)CC3)cc2[nH]c1=O` [Compound 16, 1'-((7-(ethyl-2,2,2-d3)-6-oxo-5,6-dihydro-1,5-naphthyridin-3-yl)methyl)-N-methyl-1',2',3',6'-t etrahydro-[3,4'-bipyridine]-6-carboxamide], the area under the curve AUC(0-t) came to 88.1 µg·h/mL, the Cmax amounted to 7160 ng/mL and the half-life was 8.92 h.
`CCc1cc2ncc(CN3CC=C(c4ccc(C(=O)NC)nc4)CC3)cc2[nH]c1=O` [Compound 1] gave an AUC(0-t) of 235 µg·h/mL, a Cmax of 7610 ng/mL and a half-life of 19.7 h.
`[2H]C([2H])([2H])NC(=O)c1ccc(C2=CCN(Cc3cnc4cc(C([2H])([2H])C([2H])([2H])[2H])c(=O)[nH]c4c3)CC2)cn1` [Compound 11, 1'-((7-(ethyl-d5)-6-oxo-5,6-dihydro-1,5-naphthyridin-3-yl)methyl)-N (methyl-d3)-1',2',3',6'-tet rahydro-[3,4'-bipyridine]-6-carboxamide]: the AUC(0-t) was 91 µg·h/mL, the highest level (Cmax) was 6590 ng/mL and the half-life was 15.6 h.
Consider `[2H]C([2H])(c1cnc2cc(CC)c(=O)[nH]c2c1)N1CC=C(c2ccc(C(=O)NC)nc2)CC1` [Compound 15, 1'-((7-ethyl-6-oxo-5,6-dihydro-1,5-naphthyridin-3-yl)methyl-d2)-N-methyl-1',2',3',6'-tetrahydr o-[3,4'-bipyridine]-6-carboxamide], for which the area under the curve AUC(0-t) is 115 µg·h/mL, the Cmax amounted to 6420 ng/mL and the half-life is 14.1 h.
On the same counts, the results for `[2H]C([2H])([2H])C([2H])([2H])c1cc2ncc(CN3CC=C(c4ccc(C(=O)NC)nc4)CC3)cc2[nH]c1=O` [Compound 6, 1'-((7-(ethyl-d5)-6-oxo-5,6-dihydro-1,5-naphthyridin-3-yl)methyl)-N-methyl-1',2',3',6'-tetrahy dro-[3,4'-bipyridine]-6-carboxamide] are 188 µg·h/mL, 8210 ng/mL and 16.2 h.
On to `[2H]C([2H])([2H])NC(=O)c1ccc(C2=CCN(Cc3cnc4cc(CC)c(=O)[nH]c4c3)CC2)cn1` [Compound 2, 1'-((7-ethyl-6-oxo-5,6-dihydro-1,5-naphthyridin-3-yl)methyl)-N-(methyl-d3)-1',2',3',6'-tetrahy dro-[3,4'-bipyridine]-6-carboxamide], for which the AUC(0-t) was determined as 141 µg·h/mL, the peak level (Cmax) was 7620 ng/mL and the half-life was 14.3 h.
